Measured values as given in patent US20090137681A1 (published 2009).

Amino acid sequences for entries named in this document (tags omitted). A change or cut given only in a name is not applied to a line headed by its entry.
UniProt P06700: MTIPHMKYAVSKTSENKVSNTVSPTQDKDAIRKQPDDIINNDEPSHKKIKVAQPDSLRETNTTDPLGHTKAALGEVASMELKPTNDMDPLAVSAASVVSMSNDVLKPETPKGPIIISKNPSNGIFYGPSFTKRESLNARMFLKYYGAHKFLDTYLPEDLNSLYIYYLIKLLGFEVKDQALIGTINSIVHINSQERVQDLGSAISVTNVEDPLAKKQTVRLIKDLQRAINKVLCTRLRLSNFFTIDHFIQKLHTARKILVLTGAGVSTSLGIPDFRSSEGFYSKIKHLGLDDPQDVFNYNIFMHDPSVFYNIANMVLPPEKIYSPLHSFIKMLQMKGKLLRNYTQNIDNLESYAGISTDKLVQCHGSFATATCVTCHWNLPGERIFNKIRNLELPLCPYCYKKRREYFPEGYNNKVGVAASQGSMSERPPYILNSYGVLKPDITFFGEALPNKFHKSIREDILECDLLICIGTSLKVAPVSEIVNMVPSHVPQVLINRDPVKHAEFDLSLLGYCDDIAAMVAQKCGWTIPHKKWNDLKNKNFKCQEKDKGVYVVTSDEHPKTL

Molecular target: yeast Sir2 (ySir2) (Saccharomyces cerevisiae, UniProt P06700)
Assay: Yeast Sir2 deacetylase inhibition, HDAC fluorescent activity assay (BIOMOL AK-500)

CC(NC(=O)c1ccccc1/N=C/c1c(O)ccc2ccccc12)c1ccccc1 (racemic) [Compound 1, sirtinol, reference compound]
IC50: 48 µM
